## OPERA 2.9 data: properties

Source: data files of OPERA 2.9 (Mansouri et al.), github.com/kmansouri/OPERA.

The melting point is given in degrees Celsius. The octanol-water partition coefficient is given as log10; larger values mean a more lipophilic compound. Water solubility is log10 of mol/L, nominally at 25 °C; higher is more soluble. Vapor pressure is log10 of mmHg; the set covers 15 to 30 °C, mostly 20 to 25 °C. The Henry's law constant is on a log10 scale in atm·m3/mol (set defined at 25 °C); higher favours air over water. The unbound fraction in human plasma runs from 0 (all bound) to 1 (all free). Intrinsic clearance (human, µL/min per 10^6 hepatocytes): higher is faster turnover, and 0 stands for none detected. Cells with "–" have no entry in this list.

compound | MP (°C) | log Kow | water solubility (log10 mol/L) | log VP (log10 mmHg) | log H (log10 atm·m3/mol) | plasma fu | intrinsic clearance (µL/min/10^6 cells)
Sc1ccccc1Cl | – | 1.96 | -2.021 | -0.216 | – | – | –
CCS(=O)(=O)Oc1ccc2c(c1)C(C)(C)CO2 | 30.1 | – | -2.991 | -4.68 | – | – | –
COS(=O)(=O)[O-].Cn1c(-c2ccccc2)cc(-c2ccccc2)[n+]1C | 157 | 0.65 | 0.326 | – | – | – | –
COc1ccc(C(=CC(=O)N2CCOCC2)c2ccc(Cl)cc2)cc1OC | – | – | -4.13 | – | -9.696 | 0.09338 | 20.3
CO[Si](C)(CN=C=O)OC | -63.7 | – | – | -0.374 | – | – | –
COc1cc(OC)nc(NC(=O)NS(=O)(=O)c2cc(NC=O)ccc2C(=O)N(C)C)n1 | 196.8 | -0.78 | -2.14 | -12.5 | – | 0.06415 | 0
C=C(F)C(F)(F)F | – | 2 | -2.76 | – | – | – | –
O=P(O)(O)c1ccccc1 | – | – | 0.08 | -8.253 | – | – | –
Cc1ccn2nc(S(=O)(=O)Nc3c(F)cccc3F)nc2n1 | – | 0.21 | – | – | – | – | 7.52
CSc1nnc(C(C)(C)C)c(=O)n1N | – | – | – | – | – | 0.4888 | 1.07
C=CCC1(CCCC)C(=O)NC(=O)NC1=O | – | 2.31 | -2.171 | – | – | – | –
CO/N=C(/C1=NOCCO1)c1ccccc1Oc1ncnc(Oc2ccccc2Cl)c1F | – | – | -5.3 | – | – | 0.0367 | 16.35
Cc1c([N+](=O)[O-])c(C)c([N+](=O)[O-])c(C(C)(C)C)c1[N+](=O)[O-] | – | 4.9 | -5.783 | -6.648 | – | – | –
CNC(=O)Oc1ccc2c(c1)[C@]1(C)CCN(C)[C@@H]1N2C | – | – | – | – | – | 0.699 | 1.64
Clc1ccc(Cl)c(-c2ccccc2)c1Cl | 56 | – | – | -3.185 | – | – | –
COC(=O)C1(O)c2ccccc2-c2ccc(Cl)cc21 (stereo not drawn) | – | – | – | -6.011 | -8.108 | – | –
Clc1cc(Cl)c2c(c1)Oc1c(Cl)cc(Cl)cc1O2 | 219 | – | – | -8.28 | – | – | –
CCCC(=O)c1c(C)cc(C)c(C2CC(=O)C(C(CC)=NOCC)=C(O)C2)c1C (stereo not drawn) | – | – | -4.759 | – | -9.243 | – | –
ClC(Cl)=C(Cl)Cl | – | – | – | – | – | 0.2463 | 0.0109
c1ccc2c(c1)-c1cccc3cccc-2c13 | – | – | – | – | – | 0.01409 | 8.064
COC(=O)c1c(C(F)F)nc(C(F)(F)F)c(C2=NCCS2)c1CC(C)C | – | – | – | – | -6.329 | 0.01084 | 41.5
CC[C@H]1CCC[C@H](O[C@H]2CC[C@H](N(C)C)[C@@H](C)O2)[C@@H](C)C(=O)C2=C[C@@H]3[C@@H](C=C[C@@H]4C[C@@H](O[C@@H]5O[C@@H](C)[C@H](OC)[C@@H](OC)[C@H]5OC)C[C@@H]34)[C@@H]2CC(=O)O1 | 84 | 5 | – | -9.648 | – | – | –
CCN(CC)P(Cl)(Cc1ccccc1)(c1ccccc1)c1ccccc1 | 217.5 | -0.73 | – | – | – | – | –

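OPERA's authors assembled the values from existing databases and did not measure them anew. A listed value is a point estimate from one report or more. Conditions of the individual experiments are not part of the data. The measured form (salt, isomer or mixture) is not always the one drawn. Some upstream entries may be estimates or bounds without being marked so.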